# From EP4772530A1, “PEPTIDE TARGETING SOMATOSTATIN RECEPTOR, DRUG CONJUGATE AND USE THEREOF” (Mainline Biosciences (Shanghai) Co., Ltd., priority 2023, dated 2025)
# Tested on: NCI-H69 cells
# Details: for Tumor Volume (Mean ± SEM): Etoposide 10 mpk, intravenous, twice a week
compound,measurement,setting,value
"COc1cc([C@@H]2c3cc4c(cc3[C@@H](O[C@@H]3O[C@@H]5CO[C@@H](C)O[C@H]5[C@H](O)[C@H]3O)[C@H]3COC(=O)[C@H]23)OCO4)cc(OC)c1O [Etoposide, etoposide]",tumor inhibition compared to the vehicle control group,"By Day 32, etoposide 10 mg/kg, p< 0.001",significant tumor inhibition
same,Tumor Volume (Mean ± SEM),Day 18,148±12 mm3
same,Tumor Volume (Mean ± SEM),Day 21,197±12 mm3
same,Tumor Volume (Mean ± SEM),Day 25,283±31 mm3
same,Tumor Volume (Mean ± SEM),Day 28,346±55 mm3
same,Tumor Volume (Mean ± SEM),Day 32,423±101 mm3
same,Tumor Volume (Mean ± SEM),Day 35,541±176 mm3
same,Tumor Volume (Mean ± SEM),Day 39,740±243 mm3
same,Tumor Volume (Mean ± SEM),Day 42,808±276 mm3
same,Tumor Volume (Mean ± SEM),Day 46,1057±365 mm3

# Like-named read-outs stand apart in the source and are kept apart here.
